From ChEMBL document CHEMBL1782004, “Pyrimidine nucleotides with 4-alkyloxyimino and terminal tetraphosphate δ-ester modifications as selective agonists of the P2Y(4) receptor” (J Med Chem, 2011) come the findings set out here.

Sequences of proteins named here, by UniProt entry; tags and fusion partners are left off. A change or cut given only in a name is not applied to a line headed by its entry.
UniProt P41231: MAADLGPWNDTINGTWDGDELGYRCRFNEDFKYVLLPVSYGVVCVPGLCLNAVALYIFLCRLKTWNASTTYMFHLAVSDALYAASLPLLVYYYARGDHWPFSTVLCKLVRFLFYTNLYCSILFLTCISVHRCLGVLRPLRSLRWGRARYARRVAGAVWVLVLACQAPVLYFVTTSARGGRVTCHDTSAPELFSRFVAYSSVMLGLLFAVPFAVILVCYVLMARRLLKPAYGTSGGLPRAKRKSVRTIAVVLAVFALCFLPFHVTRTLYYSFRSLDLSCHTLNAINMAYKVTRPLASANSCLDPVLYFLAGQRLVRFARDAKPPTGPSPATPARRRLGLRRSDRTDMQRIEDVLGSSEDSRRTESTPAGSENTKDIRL

The test has as its target P2Y purinoceptor 2 (Homo sapiens, UniProt P41231). Description: Ratio of EC50 for human recombinant P2Y2 receptor expressed in human 1321N1 cells to EC50 for human recombinant P2Y4 receptor expressed in human 1321N1 cells. The class given is cell-based.

Regarding `O=c1ccn([C@@H]2O[C@H](COP(=O)(O)OP(=O)(O)OP(=O)(O)O)[C@@H](O)[C@H]2O)c(=O)[nH]1` [URIDINE TRIPHOSPHATE], the Ratio EC50 turned out to be 5.
